This assay concerns the target GLP-1R (Homo sapiens, UniProt P43220). Kind of assay: Agonist activity on GLP-1R, HTRF cAMP detection in stably transfected GLP-1R/HEK293 cells. Conditions: 30 min incubation. In kind it is cell-based. On the technique in general: TR-FRET usually uses a lanthanide donor and a delayed reading to cut background.

Protein sequences, listed by entry. Tags and fused reporters are not part of them. Residues count along the entry.
UniProt P43220, 24-463 limits assumed: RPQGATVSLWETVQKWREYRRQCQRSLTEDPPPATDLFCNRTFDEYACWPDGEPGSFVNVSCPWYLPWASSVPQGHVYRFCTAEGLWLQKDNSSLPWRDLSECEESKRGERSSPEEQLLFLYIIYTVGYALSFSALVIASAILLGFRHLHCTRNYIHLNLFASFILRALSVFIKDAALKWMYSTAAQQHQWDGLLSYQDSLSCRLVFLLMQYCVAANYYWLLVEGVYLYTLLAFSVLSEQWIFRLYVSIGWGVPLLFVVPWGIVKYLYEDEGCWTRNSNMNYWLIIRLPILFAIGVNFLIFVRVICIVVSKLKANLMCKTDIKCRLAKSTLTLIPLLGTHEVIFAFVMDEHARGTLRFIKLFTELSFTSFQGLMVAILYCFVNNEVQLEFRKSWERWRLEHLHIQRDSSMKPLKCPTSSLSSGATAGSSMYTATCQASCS

Regarding `CCn1cncc1Cn1c(CN2CCC(Oc3ccc(F)c(OCc4ccc(C#N)cc4F)n3)CC2)nc2ccc(C(=O)O)cc21`, the EC50 (usually the concentration needed to bring the measured effect to its halfway point) was determined as 1.25 nM.
